{
  "sequences": {"note": "The chains behind the UniProt entries cited, without tags or fusion partners. Residues count along the entry.", "UniProt P47871, 26-477": "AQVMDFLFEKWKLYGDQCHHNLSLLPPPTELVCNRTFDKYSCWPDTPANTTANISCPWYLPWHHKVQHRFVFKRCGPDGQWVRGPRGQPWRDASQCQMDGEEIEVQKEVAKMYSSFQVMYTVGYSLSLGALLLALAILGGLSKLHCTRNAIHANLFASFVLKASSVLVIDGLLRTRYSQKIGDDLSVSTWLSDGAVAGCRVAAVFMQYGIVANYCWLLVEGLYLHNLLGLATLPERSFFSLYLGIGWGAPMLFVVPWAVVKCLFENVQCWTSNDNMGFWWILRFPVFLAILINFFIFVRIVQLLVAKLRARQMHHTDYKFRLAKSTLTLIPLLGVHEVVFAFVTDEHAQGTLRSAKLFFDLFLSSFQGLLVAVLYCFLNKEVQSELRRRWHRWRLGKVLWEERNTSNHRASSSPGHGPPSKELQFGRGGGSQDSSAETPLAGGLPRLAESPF"},
  "source": "paper PMC9679702",
  "about": "“BI 456906: Discovery and preclinical pharmacology of a novel GCGR/GLP-1R dual agonist with robust anti-obesity efficacy” (Molecular Metabolism, 2022)",
  "key": {"[1]": {"target": "human glucagon receptor (human) (UniProt P47871)"}, "[2]": {"target": "human glucagon receptor (human) (UniProt P47871)", "remark": "listed apart in the source"}},
  "data": [
    {"substance": "glucagon (peptide)", "values": [
      {"measurement": "EC50 in the CRE-luciferase assay, HEK293 CRE-luc2P cells expressing recombinant GCGR, 0.5% human plasma", "setting": "[1]", "value": 47, "unit": "pM"},
      {"measurement": "EC50 of cAMP generation (AlphaScreen cAMP assay), CHO-K1 cells expressing human GCGR, 0.1% BSA", "setting": "[2]", "value": 20, "unit": "pM"}
    ]}
  ]
}
